The values below are quoted from earlier work in article PMC13170487.

In data set [1] the target is CFTR C-terminus (Homo sapiens).

Several values for one entry are separate records, joined by “and”; a condition that tells them apart may be missing. Equal entries are not always repeated.

For the substance CAL PDZ (from UniProt Q9HD26), the Kd (usually the free concentration of one partner at which half of the binding sites on the other are occupied at equilibrium, for simple one-to-one binding) in data set [1] is 420 µM and 590 µM. In the data set with iCAL36, the Ki (usually the equilibrium dissociation constant of an inhibitor or competing ligand from its target) was 22.6 µM.
